The results in this text go back to US20070054328A1 (published 2007).

One experiment addresses T1, FLAG-TAPP1 (UniProt Q9HB21).
T1 construct: Co-expressed in 293 cells with GST-PDZ domain fusions
Nature of the experiment: co-transfection binding assay in 293 cells; glutathione-Sepharose pull-down, anti-FLAG immunoblot. In general terms: Immunoblotting shows a protein as a band on a membrane.

For another experiment, the target named is T2, FLAG-TAPP2 (UniProt Q9HB19 1-425, limits assumed).
T2 construct: Co-expressed in 293 cells with GST-PDZ domain fusions
T2 sequence (looked up): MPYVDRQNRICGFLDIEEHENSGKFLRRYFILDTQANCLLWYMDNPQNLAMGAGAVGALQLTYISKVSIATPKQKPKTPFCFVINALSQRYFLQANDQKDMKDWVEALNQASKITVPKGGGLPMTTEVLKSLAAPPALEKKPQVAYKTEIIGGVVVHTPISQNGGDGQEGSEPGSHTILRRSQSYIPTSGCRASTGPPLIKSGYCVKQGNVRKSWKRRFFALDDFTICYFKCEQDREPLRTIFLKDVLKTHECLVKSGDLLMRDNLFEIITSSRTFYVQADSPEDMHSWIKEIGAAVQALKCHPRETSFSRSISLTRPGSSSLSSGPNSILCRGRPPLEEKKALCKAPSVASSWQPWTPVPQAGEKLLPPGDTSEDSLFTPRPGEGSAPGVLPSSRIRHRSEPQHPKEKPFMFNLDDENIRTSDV
The description is as above.

B1: GST-PTPH1-PDZ domain (other, not shown: small tags and cut ends)
chain (part 1 of 2): MSPILGYWKIKGLVQPTRLLLEYLEEKYEEHLYERDEGDKWRNKKFELGLEFPNLPYYIDGDVKLTQSMAIIRYIADKHNMLGGCPKERAEISMLEGAVLDIRYGVSRIAYSKDFETLKVDFLSKLPEMLKMFEDRLCHKTYLNGDHVTHPDFMLYDALDVVLYMDPMCLDAFPKLVCFKKRIEAIPQIDKYLKSSKYIAWPLQGWQATFGGGDHPPK
chain (part 2 of 2): GKFGFNLKGGVDQKMPLVVSRINPESPADTCIPKLNEGDQIVLINGRDISEHTHDQVVMFIKASRESHSRELALVIRRRAVRS
notes: Amplified from an EST (BG115423, IMAGE clone 4416683); also called PDZ domain of PTPH1; HA tagged PDZ domain of PTPH1
B1: the binding result with FLAG-TAPP1 and with FLAG-TAPP2 was “no binding” in each case.

B2: GST-PTP-MEG1-PDZ domain (other, not shown: small tags and cut ends)
chain (part 1 of 2): B1 chain (part 1 of 2)
chain (part 2 of 2): GIPHDNLVLIRMKPDENGRFGFNVKGGYDQKMPVIVSRVAPGTPADLCVPRLNEGDQVVLINGRDIAEHTHDQVVLFIKASCERHSGELMLLVRPNAVYDVV
notes: Amplified from an EST (BI916937, IMAGE clone 5241923); also called PDZ domain of PTP-MEG1; HA tagged PDZ domain of PTP-MEG1
With B2, the binding result with FLAG-TAPP1 and with FLAG-TAPP2 was “no binding” each time.
